Yeast mating assay 1: variants of the scFv Ab-14

The measurements come from Engelhart et al. 2022 (doi:10.1038/s41597-022-01779-4) through the FLAb antibody collection.

Target peptide (SARS-CoV-2 spike, HR2 region): PDVDLGDISGINAS

The variants keep the heavy chain, the linker and the frameworks of Ab-14 (scFv order VH, a 15-residue (Gly4Ser)3 linker, VL).
VH: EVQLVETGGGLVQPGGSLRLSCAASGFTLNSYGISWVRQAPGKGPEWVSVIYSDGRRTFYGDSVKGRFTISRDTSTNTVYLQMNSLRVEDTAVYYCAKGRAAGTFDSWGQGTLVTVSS
VL: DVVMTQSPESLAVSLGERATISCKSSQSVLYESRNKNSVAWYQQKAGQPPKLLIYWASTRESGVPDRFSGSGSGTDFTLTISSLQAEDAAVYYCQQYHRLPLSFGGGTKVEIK

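Phage display of a naive human antibody library on the peptide gave the parent. The library (AAYL50) carries one to three amino acid substitutions per variant, with no insertions or deletions. AlphaSeq pools MATa yeast showing the antibodies with MATalpha yeast showing the peptide. Binding brings cells together so that they mate, and sequencing counts the barcode pairs among the diploids. Read counts were normalised to the haploid input and turned into Kd by a linear fit to BCL2-family pairs of known affinity, for each replicate. Each pool was mated in three replicate cultures.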

Variants are written as CDR1, CDR2 and CDR3 of the light chain (limits as in the source). Parent: KSSQSVLYESRNKNSVA, WASTRES, QQYHRLPLS.
Numbers give log10(Kd / nM), so 0 is 1 nM and 3 is 1 µM. Smaller is tighter.
An entry "n.d." has no value in the source: the pair was not observed among the diploids in that replicate. This suggests poor binding but is not conclusive.

{"CDR-L1": "KSSQSVLTESRNKNSVA", "CDR-L2": "WASTRES", "CDR-L3": "QQYHRLVLS", "replicates, log10 nM": "n.d. 4.16 n.d.", "control signals": "0 of 9"}
{"CDR-L1": "KSSQSVLYESRNKNEVA", "CDR-L2": "WASTRES", "CDR-L3": "QQYHRVNLS", "replicates, log10 nM": "n.d. n.d. n.d.", "control signals": "3 of 9 (3.99)"}
{"CDR-L1": "KSYQSVLYELRNKNSVA", "CDR-L2": "WASTRES", "CDR-L3": "QQFHRLPLS", "replicates, log10 nM": "n.d. 4.09 n.d.", "control signals": "2 of 9 (3.21)"}
{"CDR-L1": "KSSQSVLYESRSKNSVG", "CDR-L2": "WASTRES", "CDR-L3": "QQYHRLPLV", "replicates, log10 nM": "n.d. 3.81 n.d.", "control signals": "0 of 9"}
{"CDR-L1": "KSSQSVLYESRNPNSVQ", "CDR-L2": "WASTLES", "CDR-L3": "QQYHRLPLS", "replicates, log10 nM": "n.d. 4.23 4.20", "control signals": "7 of 9 (5.16)"}
{"CDR-L1": "KQSQSVAYESRNKNSVA", "CDR-L2": "WASTRES", "CDR-L3": "QQYHRLPLS", "replicates, log10 nM": "0.43 0.78 0.82", "control signals": "1 of 9 (3.00)"}
{"CDR-L1": "KSSQSVLYESRNFNSVA", "CDR-L2": "WASTRQS", "CDR-L3": "QQWHRLPLS", "replicates, log10 nM": "2.50 2.82 3.53", "control signals": "2 of 9 (3.98)"}
{"CDR-L1": "QSSQSVLYAARNKNSVA", "CDR-L2": "WASTRES", "CDR-L3": "QQYHRLPLS", "replicates, log10 nM": "1.28 1.17 1.32", "control signals": "2 of 9 (3.91)"}
{"CDR-L1": "QNSQSVLYESRNKNSVA", "CDR-L2": "WASTRES", "CDR-L3": "QDYHRLPLS", "replicates, log10 nM": "1.25 1.65 1.40", "control signals": "1 of 9 (4.56)"}
{"CDR-L1": "KSSQSNLYESGNKNSVA", "CDR-L2": "WASTRES", "CDR-L3": "QQYHRLPHS", "replicates, log10 nM": "n.d. 3.34 n.d.", "control signals": "1 of 9 (2.17)"}
{"CDR-L1": "KSSQSVLYKSRNKNSVA", "CDR-L2": "WASTRNA", "CDR-L3": "QQYHRLPLS", "replicates, log10 nM": "2.64 2.53 2.90", "control signals": "4 of 9 (4.18)"}
{"CDR-L1": "KSSQSPLYESRNKNSVA", "CDR-L2": "WASTRES", "CDR-L3": "QQYHRLPLS", "replicates, log10 nM": "0.79 1.03 1.05", "control signals": "4 of 9 (4.48)"}
{"CDR-L1": "KSLQSVLYFSRNKNSVA", "CDR-L2": "WASTRES", "CDR-L3": "QQYHLLPLS", "replicates, log10 nM": "n.d. n.d. n.d.", "control signals": "0 of 9"}
{"CDR-L1": "KSDCSVLYEARNKNSVA", "CDR-L2": "WASTRES", "CDR-L3": "QQYHRLPLS", "replicates, log10 nM": "1.67 1.72 1.46", "control signals": "0 of 9"}
{"CDR-L1": "ASSQSVLYESRNKNSVA", "CDR-L2": "WASTRES", "CDR-L3": "QRYHRLDLS", "replicates, log10 nM": "n.d. n.d. n.d.", "control signals": "1 of 9 (3.52)"}
{"CDR-L1": "KSSQSVLYEPRNKPSVA", "CDR-L2": "WASTRES", "CDR-L3": "QQYHRLPLW", "replicates, log10 nM": "n.d. n.d. n.d.", "control signals": "2 of 9 (2.73)"}
{"CDR-L1": "KSSQHVLYESRNKNSDA", "CDR-L2": "WASTRES", "CDR-L3": "QFYHRLPLS", "replicates, log10 nM": "n.d. 2.92 n.d.", "control signals": "3 of 9 (4.41)"}
{"CDR-L1": "KSSQSVLYESRNKNAVA", "CDR-L2": "WASIRES", "CDR-L3": "QQYIRLPLS", "replicates, log10 nM": "0.65 0.83 0.73", "control signals": "2 of 9 (5.74)"}
{"CDR-L1": "KSMQSVLYESVNKNSVA", "CDR-L2": "WASTRTS", "CDR-L3": "QQYHRLPLS", "replicates, log10 nM": "1.14 1.43 1.35", "control signals": "3 of 9 (4.31)"}
{"CDR-L1": "KSSQSVLYESRNKNSVA", "CDR-L2": "WASTRES", "CDR-L3": "YQYYRLYLS", "replicates, log10 nM": "n.d. n.d. n.d.", "control signals": "2 of 9 (4.60)"}
{"CDR-L1": "KSSQSVLYESRNDNSHA", "CDR-L2": "EASTRES", "CDR-L3": "QQYHRLPLS", "replicates, log10 nM": "2.60 2.86 3.13", "control signals": "1 of 9 (4.09)"}
{"CDR-L1": "KSSQSMLYESRNKHSVA", "CDR-L2": "WASRRES", "CDR-L3": "QQYHRLPLS", "replicates, log10 nM": "2.72 2.38 2.50", "control signals": "1 of 9 (4.33)"}

From the list, the first 3 with no signal in any replicate:

{"CDR-L1": "KSSQSVLYESRNKNEVA", "CDR-L2": "WASTRES", "CDR-L3": "QQYHRVNLS", "replicates, log10 nM": "n.d. n.d. n.d.", "control signals": "3 of 9 (3.99)"}
{"CDR-L1": "KSLQSVLYFSRNKNSVA", "CDR-L2": "WASTRES", "CDR-L3": "QQYHLLPLS", "replicates, log10 nM": "n.d. n.d. n.d.", "control signals": "0 of 9"}
{"CDR-L1": "ASSQSVLYESRNKNSVA", "CDR-L2": "WASTRES", "CDR-L3": "QRYHRLDLS", "replicates, log10 nM": "n.d. n.d. n.d.", "control signals": "1 of 9 (3.52)"}

Empty control strains, which show no peptide, gave a signal in 18% of pairings with library AAYL50; the median was 4.19 and 95% of these signals were weaker than 2.99. No background was subtracted. Also given: how often the same scFv was detected with the empty control strains, with their mean in brackets.
For reference, the parent read 0.65 as the reference entry and 1.68 as a member of this library.